Biological target: recombinant IL4I1 (Homo sapiens (Human), UniProt Q96RQ9)
Test: IL4I1 Enzymatic Assay (Amplex Red/HRP coupled fluorescence detection of H2O2)
Conditions: read-out: EC50 (nM) (240 min), recombinant IL4I1, four-hour pre-incubation with compound
Procedure: Interleukin 4 inducible protein 1 (IL4I1) is an L-amino oxidase that catalyzes the oxidation of aromatic residues (Phe, Trp and Tyr): L-amino acid+H2O+O2→2-oxo acid+NH3+H2O2. Equal molar of H2O2 and the corresponding alpha-ketoacid are produced when IL4I1 and substrate are added. In this assay, the hydrogen peroxide generated by IL4I1 is then detected through a coupled reaction with Amplex® Red (10-acetyl-3,7-dihydroxyphenoxazine) and horseradish peroxidase (HRP) to produce resorufin product that could be detected in the form of fluorescence signals. The assessment of the inhibitory effect of small molecules (EC50) on IL4I1 is measured by the effectiveness of the compounds to inhibit the production of H2O2.
Using this assay, the potency (EC50) of each compound was determined from a ten-point (1:3 serial dilution) titration curve using the following outlined procedure. […] Reactions were allowed to proceed for 120 minutes followed by fluorescence readout on a Spectramax with the following set parameters: 544 nm excitation/590 nm emission, 570 nm cutoff (EnVision is an alternative reader). […] EC50 values were calculated using a non-linear regression, four-parameters sigmoidal dose-response model and are shown in Potency Table 1.

Sequences of proteins named here, by UniProt entry; tags and fusion partners are left off. Residues count along the entry.
UniProt Q96RQ9, 22-567 limits assumed: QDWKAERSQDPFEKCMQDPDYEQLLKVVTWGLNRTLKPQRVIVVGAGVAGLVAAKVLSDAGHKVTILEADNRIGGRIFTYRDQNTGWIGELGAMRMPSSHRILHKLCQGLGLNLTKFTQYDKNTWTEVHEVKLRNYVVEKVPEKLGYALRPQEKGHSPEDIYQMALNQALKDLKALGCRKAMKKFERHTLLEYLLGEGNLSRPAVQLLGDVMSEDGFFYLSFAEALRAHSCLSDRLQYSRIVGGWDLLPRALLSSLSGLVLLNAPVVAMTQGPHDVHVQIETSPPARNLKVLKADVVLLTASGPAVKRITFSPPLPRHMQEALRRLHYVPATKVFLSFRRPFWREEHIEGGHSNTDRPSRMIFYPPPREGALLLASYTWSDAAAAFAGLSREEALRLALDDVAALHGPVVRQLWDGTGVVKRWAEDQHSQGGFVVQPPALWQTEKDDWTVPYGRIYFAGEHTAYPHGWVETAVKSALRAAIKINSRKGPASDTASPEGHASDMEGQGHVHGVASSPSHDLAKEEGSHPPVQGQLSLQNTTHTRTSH

O=C1C(=O)N(C2CCCC2)CCN1Cc1ccc(N2CCCC2)nc1
EC50: 23 nM

From US20240246937A1 (MERCK SHARP & DOHME LLC, priority 2021, published 2024)
